Experimental data reported in patent publication US8173378B2, “Methods of using an alpha-1-adrenergic receptor having altered ligand affinity” (Pharmacome LLC, priority 2007, dated 2012).

Key:
[1] = molecular target: T1, α1A-adrenergic receptor in α1A cells (Homo sapiens, UniProt P35348); experiment: Whole-cell [3H]-silodosin binding in α1A cells (CHO-K1 expressing only ADRA1A)
T1 sequence (P35348 1-466): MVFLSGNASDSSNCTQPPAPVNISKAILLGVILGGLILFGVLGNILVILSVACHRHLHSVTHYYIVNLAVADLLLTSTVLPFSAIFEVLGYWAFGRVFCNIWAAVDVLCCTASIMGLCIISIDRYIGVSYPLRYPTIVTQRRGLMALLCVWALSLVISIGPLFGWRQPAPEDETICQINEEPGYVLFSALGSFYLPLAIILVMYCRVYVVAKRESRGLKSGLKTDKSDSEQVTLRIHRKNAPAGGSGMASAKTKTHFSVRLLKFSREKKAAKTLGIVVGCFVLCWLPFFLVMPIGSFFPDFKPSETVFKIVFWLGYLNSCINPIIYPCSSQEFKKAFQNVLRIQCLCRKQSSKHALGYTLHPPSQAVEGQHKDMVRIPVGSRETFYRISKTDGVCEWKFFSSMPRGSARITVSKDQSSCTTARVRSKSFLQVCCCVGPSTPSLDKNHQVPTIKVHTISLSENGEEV

α1L-adrenergic receptor = details: α1L subtype; cited from earlier work
α1A-adrenergic receptor = molecular target: T2, α1A-adrenergic receptor (Homo sapiens, UniProt P35348); details: α1A subtype; cited from earlier work
T2 sequence (P35348 1-466): T1 sequence (P35348 1-466)

[2] = molecular target: T3, α1L-adrenergic receptor (α1A-adrenergic receptor / CRELD1α complex) in α1L cells (Homo sapiens, UniProt P35348); experiment: Whole-cell [3H]-silodosin binding in α1L cells (CHO-K1 coexpressing ADRA1A and CRELD1α)
T3 sequence (P35348 1-466): T1 sequence (P35348 1-466)
T3 sequence (Q96HD1 30-420 partner): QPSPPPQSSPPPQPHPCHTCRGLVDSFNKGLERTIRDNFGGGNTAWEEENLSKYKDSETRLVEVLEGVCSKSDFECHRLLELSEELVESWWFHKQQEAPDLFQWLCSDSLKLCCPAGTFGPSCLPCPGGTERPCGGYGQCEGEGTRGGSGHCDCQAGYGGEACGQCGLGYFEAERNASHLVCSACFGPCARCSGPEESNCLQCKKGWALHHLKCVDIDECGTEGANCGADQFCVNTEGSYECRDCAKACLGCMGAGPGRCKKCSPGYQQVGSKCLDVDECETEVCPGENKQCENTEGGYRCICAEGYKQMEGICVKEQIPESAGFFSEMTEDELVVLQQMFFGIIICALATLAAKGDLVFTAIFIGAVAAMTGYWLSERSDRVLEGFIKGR

[3] = molecular target: T4, α1L-adrenergic receptors in human prostate tissue segments (Homo sapiens, UniProt P35348); experiment: [3H]-silodosin binding in human prostate tissue segments; details: read-out: −log Ki (pKi) at [3H]-silodosin binding sites (converted)
T4 construct: from tissue; host or cells: human prostate tissue segments
T4 sequence (P35348 1-466): T1 sequence (P35348 1-466)

COc1ccccc1N1CCN(CCN2C(=O)CC3(CCCC3)CC2=O)CC1.Cl.Cl [BMY 7378, 8-[2-[4-(2-methoxyphenyl)-1-piperazinyl]ethyl]8-azaspiro[4,5]decane7,9-dione dihydrochloride]
Ki [1]: 316 nM
Affinity (pKb) (α1L-adrenergic receptor): 6.9-5.6
Affinity (pKb) (α1A-adrenergic receptor): 6.9-5.6
Ki [2]: > 1000 nM
Ki [3]: 1260 nM
